# Reference: patent US7528234B2, “Process for the preparation of doxorubicin conjugates with lactosaminated human albumin” (priority 2004, dated 2009)
# Assays:
# [1] = Distribution of free DOXO in the organs of mice injected with the conjugate; assay type: in vivo, mouse; details: intravenous 24 μg/g of conjugate (1 μg/g of DOXO), different times (FIG. 1)
# Text: Female Swiss mice weighing 26-30 g were used. They were obtained from Harlan Italy (Udine) and were kept in the animal house at the Department of Experimental Pathology of the University of Bologna. The experimental protocols were approved by the University of Bologna's ethics committee.
# (§1) The stability of the bond between DOXO and L-HSA in mouse plasma in vitro and the distribution of free DOXO (released from the “carrier”) in the organs of the mice injected with the conjugate were studied as described in Di Stefano et al. (Di Stefano G, et al. “Doxorubicin coupled to lactosaminated human albumin . . . ” Dig Liver Dis 2003, 35: 428-33).
# (§2) This dose of conjugate corresponded a 1 μg/g of DOXO, which is a therapeutically effective dose.
# [2] = Release of conjugated drug on incubation at pH 2 (HPLC); assay type: physicochemical; details: pH 2, 30 min
# [3] = Solubility of freeze-dried conjugate in 0.9% NaCl; assay type: physicochemical; details: after freeze-drying
# Experimental: The procedure described in detail in “Materials and Methods” yielded reproducible results. In twenty preparations of L-HSA-DOXO, the drug/“carrier” molar ratio (MR) varied from 5 to 6.5. After freeze-drying, these preparations were readily dissolved in 0.9% NaCl at a concentration of 2 mg of DOXO conjugate/ml (corresponding to 40-55 mg of conjugate/ml), yielding clear solutions.
# [4] = Stability of the bond between DOXO and L-HSA in mouse plasma in vitro; assay type: in vitro ADME; details: incubated 2 h at 37° C. in mouse plasma
# Experimental: as §1, §2
substance,measurement,setting,value
L-HSA-DOXO,concentrations of free DOXO in the liver versus other organs,[1],quite a number of times higher than those measured in the other organs
same,release of conjugated drug at acidic pH,[2],released all the conjugated drug
same,"concentration at which freeze-dried preparations readily dissolved, yielding clear solutions",[3],2 mg of DOXO conjugate/ml
same,corresponding conjugate concentration readily dissolved,[3],40-55 mg of conjugate/ml
same,release of drug in mouse plasma,[4],did not release a measurable quantity of drug
